Amino acid sequences for entries named in this document (tags omitted).
UniProt P21453, whole entry: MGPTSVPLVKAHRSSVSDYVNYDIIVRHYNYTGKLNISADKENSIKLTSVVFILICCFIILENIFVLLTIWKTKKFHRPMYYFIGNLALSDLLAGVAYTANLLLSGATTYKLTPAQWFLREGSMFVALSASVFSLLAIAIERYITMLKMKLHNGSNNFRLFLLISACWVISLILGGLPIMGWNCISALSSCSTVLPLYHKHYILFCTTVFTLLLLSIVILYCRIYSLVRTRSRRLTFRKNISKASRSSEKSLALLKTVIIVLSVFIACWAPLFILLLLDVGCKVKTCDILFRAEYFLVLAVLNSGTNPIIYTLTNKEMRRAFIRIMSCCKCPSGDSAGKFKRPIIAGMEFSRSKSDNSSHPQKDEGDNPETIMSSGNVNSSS

According to US8309768B2, “FTY720-derived anticancer agents” (The Ohio State University Research Foundation, priority 2010, dated 2012):

Target: T1, S1P1 receptor-overexpressing Huh7 cells (Homo sapiens, UniProt P21453)
T1 construct: expressed in transfected cells
Assay: Immunocytochemical analysis of S1P1 receptor internalization
Assay type: cell-based
Conditions: immunocytochemistry
Experimental: Overexpression of S1P1 Receptors. Huh7 or Hep3B cells were transfected with plasmids encoding S1PR1, Flag-tagged GST-π or hemagglutinin (HA)-tagged, CA-Akt. The corresponding empty vectors were used as controls. Stable clones were selected over 3 weeks by geneticin, and the expression of cloned proteins was confirmed by Western blotting.
Immunocytochemistry. Immunocytochemical analysis of S1P1 internalization and PKCδ nuclear translocation were performed as described. Tseng et al., Mol Pharmacol 70, 1534-1541 (2006). Briefly, treated cells were washed, fixed with 4% paraformaldehyde, and permeabilized with 0.1% Triton X-100. After blocking with 2% FBS, cells were incubated with rabbit anti-S1P1 or rabbit anti-PKCδ antibodies (1:200 dilution, 4° C., 24 h), followed by Alexa Fluor 488-conjugated goat anti-rabbit IgG (room temperature, 1 h). Nuclei were counterstained with a 4,6-diamidino-2-phenylindole (DAPI)-containing mounting medium (Vector Laboratories, Burlingame, Calif.).

CCCCCCCCc1ccc(CCC(N)(CO)COP(=O)(O)O)cc1 (stereo not shown) [p-FTY720]
S1P1 receptor internalization and clustering in the cytoplasm: profound effect
